Measured values as given in patent publication US12171806B2, “Therapeutic regimens and methods for lowering blood glucose and/or body weight using GLP-1R and GCGR balanced agonists” (priority 2021, dated 2024).

Tests used:
[1] = Phase 1 MAD study of ALT-801: BMI (body mass index); type: in vivo, human; conditions: 12 weeks (Day 85), 1.2, 1.8 and 2.4 mg
Procedure: Height is measured in centimeters using a wall-mounted stadiometer or one mounted on a balance beam scale, whichever is available. Subjects should be wearing socks or be barefoot. With the exception of screening visits, weight is measured in kilograms using a calibrated scale at approximately the same time of day at each nominal timepoint. Measurements should be taken with subjects wearing a gown (or other standard clothing provided by the clinical research unit), undergarments, and socks (no shoes), while fasting and after the subject has been asked to void (ie, empty bladder). Waist circumference should be taken with the subject wearing a gown. […] The measurement need not be at the level of the umbilicus. The measuring tape is kept horizontal. Height, weight, and waist circumference is measured, and BMI calculated and recorded according to the schedules in Part 1 and Part 2. Measurement of height is required at screening only. Waist circumference is measured for subjects in Part 2 only.

[2] = Phase 1 MAD study of ALT-801: serum lipids (total cholesterol, LDL, HDL, triglycerides); type: in vivo, human; conditions: for HDL cholesterol, change from baseline, mean / HDL cholesterol, percent change from baseline, mean / LDL cholesterol, change from baseline, mean / LDL cholesterol, percent change from baseline, mean / Total cholesterol, change from baseline, mean / Total cholesterol, percent change from baseline, mean / Triglycerides, change from baseline, mean / Triglycerides, percent change from baseline, mean: 12-week MAD
Procedure: Blood samples are collected for evaluation of ketone bodies after the subject has fasted overnight for at least 10 hours, 1 day prior to the first and second doses, and 6 days after the last dose. Blood samples for evaluation of FGF-21 and adiponectin are collected after the subject has fasted overnight for at least 10. Following a minimum 10 hour fast, blood is collected for assessment of lipids, including cholesterol (total, HDL, LDL), Apo A and B, lipoprotein(a), TG, and tripalmitin, prior to the first dose and 6 days after the last dose of study medication, as indicated in Table 4. Blood is collected for the assessment of inflammatory markers, including TNF-α, hs-CRP, leptin, MCP-1, and IL-6 prior to the first dose and 6 days after the last dose of study medication, as indicated in Table 4. Glucose homeostasis is assessed by 24-hour CGM using a Dexcom G6 CGM during the periods indicated in Part 1 and Part 2.

## CC[C@H](C)[C@H](NC(=O)[C@H](Cc1ccccc1)NC(=O)[C@H](CCC(=O)O)NC(=O)[C@@H]1CCCCNC(=O)CC[C@H](NC(=O)[C@H](CC(=O)O)NC(=O)[C@H](CC(C)C)NC(=O)[C@H](Cc2ccc(O)cc2)NC(=O)[C@H](CCCCN)NC(=O)[C@H](CO)NC(=O)[C@H](Cc2ccc(O)cc2)NC(=O)[C@H](CC(=O)O)NC(=O)[C@H](CO)NC(=O)[C@@H](NC(=O)[C@H](Cc2ccccc2)NC(=O)[C@@H](NC(=O)CNC(=O)[C@H](CCC(N)=O)NC(=O)C(C)(C)NC(=O)[C@@H](N)Cc2c[nH]cn2)[C@@H](C)O)[C@@H](C)O)C(=O)N[C@@H](CCCCNC(=O)[C@H]2O[C@@H](OCCCCCCCCCCCCCCCCCC(=O)O)[C@H](O)[C@@H](O)[C@@H]2O)C(=O)N[C@@H](C)C(=O)N[C@@H](C)C(=O)N1)C(=O)N[C@@H](CCC(N)=O)C(=O)N[C@@H](Cc1c[nH]c2ccccc12)C(=O)N[C@@H](CC(C)C)C(=O)N[C@@H](CC(C)C)C(=O)N[C@@H](CCC(N)=O)C(=O)N[C@H](C(N)=O)[C@@H](C)O [ALT-801, pemvidutide]
[1]
  BMI, in words: All treatment groups reduced BMI
[2]; 1.2 mg SC once weekly
  HDL cholesterol, change from baseline, mean: -7.1 mg/dL
  HDL cholesterol, percent change from baseline, mean: −16.7%
  LDL cholesterol, change from baseline, mean: -24.7 mg/dL
  LDL cholesterol, percent change from baseline, mean: −16.9%
  Total cholesterol, change from baseline, mean: -41.4 mg/dL
  Total cholesterol, percent change from baseline, mean: −20.0%
  Triglycerides, change from baseline, mean: -59.0 mg/dL
  Triglycerides, percent change from baseline, mean: −37.0%
[2]; 1.8 mg SC once weekly
  HDL cholesterol, change from baseline, mean: -14.2 mg/dL
  HDL cholesterol, percent change from baseline, mean: −30.25
  LDL cholesterol, change from baseline, mean: -37.4 mg/dL
  LDL cholesterol, percent change from baseline, mean: −30.35
  Total cholesterol, change from baseline, mean: -60.6 mg/dL
  Total cholesterol, percent change from baseline, mean: −28.05
  Triglycerides, change from baseline, mean: -43.3 mg/dL
  Triglycerides, percent change from baseline, mean: −37.95
[2]; 2.4 mg SC once weekly
  HDL cholesterol, change from baseline, mean: -15.9 mg/dL
  HDL cholesterol, percent change from baseline, mean: −36.0%
  LDL cholesterol, change from baseline, mean: -29.4 mg/dL
  LDL cholesterol, percent change from baseline, mean: −26.7%
  Total cholesterol, change from baseline, mean: -52.7 mg/dL
  Total cholesterol, percent change from baseline, mean: −28.0%
  Triglycerides, change from baseline, mean: -33.0 mg/dL
  Triglycerides, percent change from baseline, mean: −29.3%
[2]; 12 weeks, 1.2, 1.8 and 2.4 mg
  serum lipid levels, in words: improvements in serum lipid levels
